The values below come from US20140271648A1 (Janssen / Centocor, published 2014).

By Kd is commonly meant the concentration at which binding is half-saturated. The low end stands for higher affinity, the high end for lower affinity.

The target of test [1] is T1, human IFNαB2 (human, UniProt P32881 24-189). Nature of the test: cell-based or functional assay.
The target in test [2] is T1, human IFNαB2. Description: SPR (ProteOn); mAb captured on anti-human Fc, IFN as analyte.

B1: C2595 (antibody, V domains shown)
VH: EVQLQQSGGDLVKPGGSLKLSCAASGFTFSSYGMSWVRQTPDKRLDWVSIITSGGSYTYYPDSVKGRFTISRDNAKNTLYLQMSSLKSEDTAMYYCARHAEGGGNYDYAMDYWGQGTSVTVSS
VL: DIVMTQAAFSNPVTLGTSASISCRSSKSLLHSNGITYLYWYLQKPGQSPQLLIYQMSNLASGVPDRFSSSGSGIDFTLRISRVEAEDVGAYYCAQNLELPFTFGSGTKLEIK
Take B1: the “IC50, ISRE reporter gene assay” value in test [1] was 11.1 nM.

B2: M3239 (antibody, human IgG1, V domains shown)
VH: B1 VH
VL: B1 VL
notes: C2595 variable regions transferred to human IgG1 constant region; also called human/mouse chimeric IgG1 derived from c2595
In the case of B2, the dissociation constant (Kd) in test [2] amounted to 32.2 nM.

B3: IFWM43 (antibody, V domains shown)
VH: QVQLVQSGAEVKKPGSSVKVSCKASGGTFSSYAISWVRQAPGQGLEWMGGIIPIFGTANYAQKFQGRVTITADESTSTAYMELSSLRSEDTAVYYCARDSWGSYYAALDYWGQGTLVTVSS
VL: not shown
notes: Fab from a pIX phage display library, converted to human IgG1 mAb; also called anti IFNα/ω mAb M43
For B3, in test [1], the “IC50, ISRE reporter gene assay” value worked out at 25.9 nM. Besides, the Kd in test [2] stood at 0.9 nM.
